Assay results as given in PubChem BioAssay AID652105 (National Center for Advancing Translational Sciences (NCATS), 2013).
The list shows a part of the results, in another mix than the full data. Active and inactive are the calls of the source. The calls were made as follows: active = max response of -50% or lower; inconclusive = between -30% and -50%; inactive = -30% or higher.

By UniProt entry, the sequences of proteins in these tests, tags left out.
UniProt P48426, whole entry: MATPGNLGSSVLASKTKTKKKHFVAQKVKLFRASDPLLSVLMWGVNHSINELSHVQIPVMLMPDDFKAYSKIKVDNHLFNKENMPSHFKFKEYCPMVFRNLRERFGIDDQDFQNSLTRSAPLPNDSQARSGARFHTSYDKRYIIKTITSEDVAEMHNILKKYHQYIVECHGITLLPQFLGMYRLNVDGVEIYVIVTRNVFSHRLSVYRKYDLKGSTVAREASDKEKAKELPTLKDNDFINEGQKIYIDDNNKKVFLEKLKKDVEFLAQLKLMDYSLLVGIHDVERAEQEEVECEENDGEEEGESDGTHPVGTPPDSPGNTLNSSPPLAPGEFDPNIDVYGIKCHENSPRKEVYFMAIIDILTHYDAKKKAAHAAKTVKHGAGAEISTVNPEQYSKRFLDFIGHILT

Target: Phosphatidylinositol 5-phosphate 4-kinase type-2 alpha (Homo sapiens) (UniProt P48426)
Assay: qHTS for Inhibitors of phosphatidylinositol 5-phosphate 4-kinase (PI5P4K); also: value at the top dose of about 77 µM
Settings: PI5P4Kalpha enzyme, ADP-Glo luminescence, 60 min; active compounds read low
Description: In addition to finding PI5P, we discovered the type II phosphatidylinositol 5-phosphate 4-kinase (PI5P4K) family (alpha, beta, gamma isoforms) that catalyze the conversion of PI5P to PI(4,5)P2. Alternatively, PI(4,5)P2 can also be synthesized through phosphatidylinositol-4-phosphate (PI4P) by the type I phosphatidylinositol 4-phosphate 5-kinases (PI4P5K). These PI5P4K enzymes therefore represent one way by which cells can regulate endogenous PI5P levels and play important roles in insulin signaling and in stress responses.
This proposal aims to identify and optimize specific modulators of human PI5P4K, phosphatidylinositol-5-phosphate 4-kinase (Type II PIPK), a family of kinases that regulate AKT signaling and tumor cell growth. In this project we aim to identify inhibitors of human PI5P4K using a quantitative high-throughput screening approach against the MLSMR containing ~400,000 small molecules.
NIH Chemical Genomics Center [NCGC]
NIH Molecular Libraries Probe Centers Network [MLPCN]
Assay Submitter (PI): Atsuo Sasaki, Beth Israel Deaconess Medical Center
2 microL of PI5P4Kalpha/substrate buffer (columns 1-2, 5-48) are dispensed into Greiner white solid bottom 1536-well assay plates; column 3 receives only PI5P4Kalpha buffer as 0x substrate controls; column 4 receives only substrate buffer as 0x PI5P4Kalpha controls. Final assay buffer consists of 0.038 M HEPES pH 7.4, 0.28 mM EGTA, 0.1% CHAPS, and 5% DMSO (final concentration). Compounds are then transferred via Kalypsys pin tool equipped with 1536-pin array (10 nL slotted pins, V&P Scientific, San Diego, CA). Following addition of compound, 1 microL of ATP (5 microM final concentration, all columns) is added to initiate the reaction. ATP is diluted in an assay buffer consisting of 0.02 M HEPES pH 7.4, 60 mM MgCl2, 15 microM ATP, and 0.1% CHAPS. The plates are then incubated at room temperature for 60 minutes. ADP-Glo reagent 1 is added (2 microL) and plates incubated for 45 minutes, before ADP-Glo reagent 2 (4 microL) is added and plates incubated for 30 minutes. They are then transferred to a ViewLux high-throughput CCD imager (PerkinElmer) wherein single end-point measurements of luminescence are acquired using a clear filter.
% is scaled to controls: 0 for no effect and ±100 for the full control effect.

Compound | max response
O=C1C(O)=C([N+](=O)[O-])C(=O)C(O)=C1[N+](=O)[O-] | active: -76%
N#CC1(Nc2ccccc2)CCN(Cc2ccccc2)CC1 | inactive: -0.245%
O=C(NCC1(N2CCCCC2)CCCCC1)c1ccc(Cl)s1 | inactive: -2.6%
O=c1[nH]c2ccccc2n1C1CCN(C(c2cc3ccccc3o2)c2nnnn2C2CCCCC2)CC1 (stereo unspecified) | inactive: 3.88%
O=C(OC1CN2CCC1CC2)C1c2ccccc2Oc2ccccc21 (stereo unspecified) | inactive: -5.92%
CCCCn1nnnc1C(c1ccc(OC)cc1)N1CCC(n2c(=O)[nH]c3ccccc32)CC1 (stereo unspecified) | inactive: -0.736%
CCOC(=O)N1CCC(Nc2ccc(OC)cc2)CC1 | inactive: -1.97%
Cc1cc(C)cc(N(C(=O)c2ccccc2)C2CCN(C(=O)OC(C)(C)C)CC2)c1 | inactive: -2.55%
O=C(NCC1(N2CCCCC2)CCCCC1)c1ccc(Cl)nc1 | inactive: 5.59%
O=c1[nH]c2ccccc2n1C1CCN(C(c2ccccc2OC(F)(F)F)c2nnnn2C2CCCCC2)CC1 (stereo unspecified) | inactive: 1.58%
O=C(NCC1(N2CCOCC2)CCCCC1)c1cc2ccccc2o1 | inactive: -11.8%
Cc1cccc(NC2(C#N)CCN(Cc3ccccc3)CC2)c1 | inactive: -1.25%
CSc1ccccc1C(=O)NCC1(N2CCCCC2)CCCCC1 | inactive: -0.621%
COc1ccc(C(=O)NCC2(N3CCCCC3)CCCCC2)c(OC)c1OC | inactive: 2.73%
CC(C)(C)OC(=O)N1CCC(N(C(=O)c2ccccc2)c2ccc(F)cc2)CC1 | inactive: 0.0607%
CCC(c1nnnn1C1CCCC1)N1CCC(n2c(=O)[nH]c3ccccc32)CC1 (stereo unspecified) | inactive: 3.51%
COc1ccc(C(=O)NCC2(N3CCCCC3)CCCCC2)cc1 | inactive: -3.75%
CCCCn1nnnc1C(CC)N1CCC(n2c(=O)[nH]c3ccccc32)CC1 (stereo unspecified) | inactive: -4.25%
O=C(NCC1(N2CCCCC2)CCCCC1)c1cccs1 | inactive: 0.414%
CCCCn1nnnc1C(c1cccs1)N1CCC(n2c(=O)[nH]c3ccccc32)CC1 (stereo unspecified) | inactive: 2.51%
O=C(NCC1(N2CCCCC2)CCCCC1)c1ccc(=O)[nH]c1 | inactive: 4.75%
CN1CCC(Nc2ccc(Cl)cc2)CC1 | inactive: -0.356%
COc1cccc(C(=O)N(c2cc(C)cc(C)c2)C2CCN(C(=O)OC(C)(C)C)CC2)c1 | inactive: -1.02%

Compound | max response
COc1cccc(C(c2nnnn2C2CCCC2)N2CCC(n3c(=O)[nH]c4ccccc43)CC2)c1OC (stereo unspecified) | inactive: 4.12%
COc1cc(OC)cc(C(=O)NCC2(N3CCOCC3)CCCCC2)c1 | inactive: 6.51%
CCC(CO)(C(=O)OC1CN2CCC1CC2)c1ccccc1 (stereo unspecified) | inactive: 1.5%
NN(c1ccccc1)C1CCN(CCc2ccccc2)CC1 | inactive: 3.61%
O=C(O)C1(Nc2ccccc2)CCN(Cc2ccccc2)CC1 | inactive: -2.31%
CC(C)(C)OC(=O)N1CCC(Nc2ccccc2)CC1 | inactive: -4.4%
O=c1[nH]c2ccccc2n1C1CCN(C(c2cc3ccccc3o2)c2nnnn2C2CCCC2)CC1 (stereo unspecified) | inactive: -0.141%
CCCOc1ccc(C(=O)NCC2(N(C)C)CCCCC2)cc1 | inactive: 1.25%
CN1CCC(Nc2ccc(F)c(Cl)c2)CC1 | inactive: 1.1%
CCOc1ncccc1C(=O)NCC1(N2CCOCC2)CCCCC1 | inactive: -9.59%
CN(C)c1ccc(C(=O)NCC2(N3CCCCC3)CCCCC2)cc1 | inactive: 1.56%
Cn1c(=O)[nH]cc(N(CCCl)CCCl)c1=O | inactive: -1.83%
O=C(NCC1(N2CCCCC2)CCCCC1)c1ccco1 | inactive: -2.45%
COc1ccc(C(c2nnnn2C2CCCCC2)N2CCC(n3c(=O)[nH]c4ccccc43)CC2)cc1 (stereo unspecified) | inactive: -11.9%
CCN1CCC(Nc2cccc(F)c2)CC1 | inactive: 1.86%
CC(C)(C)n1nnnc1C(c1ccnc2ccccc12)N1CCC(n2c(=O)[nH]c3ccccc32)CC1 (stereo unspecified) | inactive: -0.748%
Cc1ccccc1NC1(C#N)CCN(Cc2ccccc2)CC1 | inactive: -8.84%
Cc1ccc(Nc2c([N+](=O)[O-])cc([N+](=O)[O-])cc2[N+](=O)[O-])cc1 | inactive: -7.24%
Cc1ccc(C(=O)NCC2(N3CCCCC3)CCCCC2)o1 | inactive: 4.29%
Cc1ccc(NC2(C#N)CCN(Cc3ccccc3)CC2)cc1 | inactive: 5.7%
CCC(c1nnnn1C1CCCCC1)N1CCC(n2c(=O)[nH]c3ccccc32)CC1 (stereo unspecified) | inactive: 3.87%
COc1cccc(C(c2nnnn2C2CCCCC2)N2CCC(n3c(=O)[nH]c4ccccc43)CC2)c1OC (stereo unspecified) | inactive: 3.41%
CC(=O)N(c1ccccc1)C1CCNCC1 | inactive: -1.92%
